From patent US7611848B2, “Method for selecting allosteric regulators of class III G protein-coupled receptors” (Centre National de la Recherche Scientifique (CNRS), priority 2003, dated 2009)

Protein sequences, listed by entry. Tags and fused reporters are not part of them. Residues count along the entry.
UniProt P31424, 568-864, stated change not applied: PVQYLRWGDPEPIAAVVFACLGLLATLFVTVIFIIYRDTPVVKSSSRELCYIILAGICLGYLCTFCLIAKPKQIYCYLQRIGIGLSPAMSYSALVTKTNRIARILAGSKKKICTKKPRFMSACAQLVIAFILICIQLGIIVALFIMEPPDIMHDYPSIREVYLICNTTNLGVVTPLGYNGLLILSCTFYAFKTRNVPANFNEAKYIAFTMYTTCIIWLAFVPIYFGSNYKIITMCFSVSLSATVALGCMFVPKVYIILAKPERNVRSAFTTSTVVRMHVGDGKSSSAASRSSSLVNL

Target: T1, mGlu5ΔS protein (heptahelical domain of the mGlu5 receptor) (Rattus norvegicus, UniProt P31424)
T1 construct: between residue P568, located 11 residues before the first transmembrane domain, and residue L864; signal peptide of the mGlu5 receptor (N); expressed in transfected cells; host or cells: HEK293
Experiment: IP production in HEK293 cells transiently expressing truncated mGlu5ΔS protein
Format: cell-based
Conditions: 100 μM glutamate (FIG. 3)
Excerpt: The results correspond to the ratio of the production of IP to the radioactivity remaining in the membranes, and are expressed as percentage baseline production of IP.
The results correspond to the ratio of the production of IP to the radioactivity remaining in the membranes.
In the context of the invention, the measurement of the level of activity of the GPCR-III-A can be carried out by any conventional method known to those skilled in the art that is suitable for measuring the activity of a GPCR-III. Among these methods, mention may be made, by way of example, of measurement of the level of production of inositol phosphates (IPs; see Experimental Section, below; Berridge, 1983; Brandish et al., 2003), measurement of […] (Milligan, 2003), measurement of intracellular calcium signals using fluorescent markers such as Fluo3 or Fluo4, and measurement of cAMP production, the latter two methods being conventional and well known to those skilled in the art.
The portion of the cDNA of the mGlu5 receptor encoding its heptahelical domain between residue P568, located 11 residues before the first transmembrane domain, and residue L864, located 37 residues after the 7th transmembrane domain, was amplified by PCR (primers SEQ ID No.1 and SEQ ID No.2), including, respectively, the restriction sites of the Mlu-I and Xba-I enzymes at the 5′ and 3′ ends (FIG. 2). […]

With glutamate as the substance, how does the “effect of glutamate on IP production” value read?
The value was “not in the cells expressing the mGlu5ΔS protein”.
